Data: patent publication US20250170266A1 (ZYMEWORKS BC INC., priority 2022, published 2025)

Assays:
[1] = tested on: mouse splenocyte+NCI_N87 co-culture; assay: ISAC in vitro activity, mIL6 from mouse splenocyte+NCI_N87 co-culture; type: cell-based; conditions: 24 hours
Experimental: Human PBMCs and mouse splenocytes were isolated as described above in EXAMPLE 3. On assay day, human PBMCs or mouse splenocytes were thawed in warm assay media (RPMI+10% FBS). Cells were spun down and resuspended in fresh assay buffer. 100,000 cells were added to each well of plates containing an ISAC. For ISAC preparation, a 5-fold 7-point titration from 100 nM in assay media was performed. For tumor cell preparation, NCI_N87 tumor cells were propagated in tissue culture plates until they reach 90% confluency and detached from tissue culture plates with TrypLE™ Express Enzyme (ThermoFisher). 10,000 tumor cells were added to wells containing antibody drug conjugate with human PBMCs or with mouse splenocytes. The co-culture was incubated with ISAC at 37° C.+5% CO2 for 24 hours before supernatant was harvested. hIL6 and mIL6 were quantified from the human PBMC+NCI_N87 co-culture supernatant and mouse splenocyte+NCI_N87 co-culture supernatant, respectively, using homogeneous time resolved fluorescence (Cisbio).
(§1) Trastuzumab coupled to the benchmark compound (e.g., without the cysteine-capped hemisuccinimide moiety, which can be a result of in vivo metabolism and constitute an active metabolite upon cleavage from the targeting moiety) was used as a positive control in this study. The following “activated” version of the benchmark was used for coupling to Trastuzumab: […]

RAW-Blue™ cells = assay: ISAC reporter gene assay, RAW-Blue cells co-cultured with NCI_N87, SEAP readout; type: cell-based, mouse; conditions: RAW-Blue+NCI_N87 co-culture, 48 hours
Experimental: The in vitro activity of ISACs was also assessed in a reporter gene assay using mouse RAW-Blue™ cells (Invivogen, San Diego, CA). Briefly, RAW-Blue™ cells were maintained in growth media recommended by the vendor until assay day. On assay day, RAW-Blue™ cells were scraped from tissue culture flasks and resuspended in assay media (DMEM+10% FBS). 100,000 RAW-Blue™ cells were added to each well of plates containing an ISAC. For ISAC preparation, a 5-fold 7-point titration from 100 nM in assay media was performed. For tumor cell preparation, NCI_N87 tumor cells were propagated in tissue culture plates until they reach 90% confluency and detached from tissue culture plates with TrypLE™ Express Enzyme (ThermoFisher). 100,000 tumor cells were added to wells containing ISAC with RAW-Blue™ cells. The co-culture was incubated with ISAC at 37° C.+5% CO2 for 48 hours before 10 μl supernatant was harvested. To the supernatant, 90 ul QUANTI-Blue™ Solution (Invivogen, San Diego, CA) was added and the amount of secreted embryonic alkaline phosphatase (SEAP) was determined by measuring absorbance (620 nm) using a Synergy™ H1 microplate reader.
as §1

[2] = tested on: human PBMC+NCI_N87 co-culture; assay: ISAC in vitro activity, hIL6 from human PBMC+NCI_N87 co-culture; type: cell-based; conditions: 24 hours

Substance | EC50 [1] | mIL6 EC50 (pM) [1] | EC50 (RAW-Blue™ cells) | hIL6 EC50 (pM) [2] | RAW-Blue EC50 (pM) (RAW-Blue™ cells)
Tras-MT-VK-PABC-Compound 167 | 3.93 nM |  |  |  | 
Tras-MT-VC-PABC-Compound 166 |  | inactive | 7.78 nM |  | 
Tras-MT-VK-PABC-Compound 159 | 7.66 nM |  |  |  | 
Tras-MT-VC-PABC-Compound 187 |  | inactive |  | inactive | Inactive
Tras-MT-VK-PABC-Compound 161 | 3.87 nM |  |  |  | 
Tras-MT-Compound 100 | 0.0866 nM |  | 0.52 nM |  | 
Tras-MT-VC-PABC-Compound 152 |  | inactive | 0.251 nM |  | 
Tras-MT-VC-PABC-Compound 111 |  | inactive | 0.0659 nM |  | 
Tras-MT-VC-PABC-Compound 112 |  | inactive | 0.295 nM |  | 
Tras-MT-VC-PABC-Compound 188 |  | inactive | 0.472 nM | inactive | 
Tras-MT-VC-PABC-Compound 139 | 0.155 nM |  | 0.63 nM |  | 
Tras-MT-VC-PABC-Compound 132 | 0.131 nM |  | 0.359 nM |  | 
Tras-MT-VK-PABC-Compound 108 |  | inactive |  | inactive | Inactive
Tras-MT-VK-PABC-Compound 182 | 0.82 nM |  |  |  | 
Tras-MT-VC-PABC-Compound 144 |  | inactive | 0.441 nM |  | 
Tras-MT-VC-PABC-Compound 172 | 0.471 nM |  |  |  | 
Tras-MT-VC-PABC-Compound 150 |  | inactive | 0.159 nM |  | 
Tras-MT-VC-PABC-Compound 145 | 0.0364 nM |  | 0.162 nM | inactive | 
Tras-MT-VC-PABC-Compound 100 |  | inactive | 0.249 nM |  | 
Tras-MT-VC-PABC-Compound 106 | 0.131 nM |  | 0.05 nM |  | 
Tras-MC-Compound 100 | 0.161 nM |  | 0.298 nM |  | 
Tras-MT-VC-PABC-Compound 169 | 2.56 nM |  |  |  | 
Tras-MT-VK-PABC-Compound 107 |  | inactive |  | inactive | inactive
Tras-MT-VC-PABC-Compound 105 | 0.626 nM |  | 0.23 nM |  | 
Tras-MT-VC-PABC-Compound 180 | 2.62 nM |  |  |  | 
Tras-MT-VC-PABC-Compound 173 | 0.193 nM |  |  |  | 
Tras-MT-VC-PABC-Compound 140 | 0.0904 nM |  | 0.312 nM |  | 
Tras-MT-VK-PABC-Compound 100 |  | inactive | 0.129 nM |  | 
Tras-MT-VC-PABC-Compound 110 | 0.163 nM |  | 0.229 nM |  | 
